From US7547806B2, “Tannate salt of rasagiline” (Teva Pharmaceutical Industries, Ltd., priority 2006, dated 2009)

Columns and labels:
[1] = Hygroscopicity after one month storage in closed containers; assay type: physicochemical; parameters: key: 1: non-hygroscopic, no visible change observed; 2: slightly hygroscopic, aggregation and lumping developed, loss of flowability; 3: hygroscopic, semi-solid material; 4: deliquescent, liquefied syrup-like product; settings: after one month in closed containers at room temperature in atmospheric air (relative humidity ~50-80%)
Procedure: The hygroscopicity was determined after one month in closed containers at room temperature in atmospheric air (relative humidity ˜50-80%)
The observed samples could be divided into four groups in accordance to their hygroscopic properties:
1=non-hygroscopic, no visible change observed
2=slightly hygroscopic, aggregation and lumping developed, loss of flowability
3=hygroscopic, semi-solid material
4=deliquescent, liquefied syrup-like product

[2] = Water content by thermal gravimetric analysis (TGA); assay type: physicochemical; settings: solid product
Procedure: (§1) Thermal gravimetric analysis (TGA) was applied for measuring amounts of volatiles (residual solvents and water) in the solid. Water content was measured by Karl Fischer method (KF).

[3] = Water content by Karl Fischer method (KF); assay type: physicochemical; settings: solid product
Procedure: as §1

[4] = compared with other salts of rasagiline

Row | Substance | Hygroscopicity [1] | Water content, % By TGA [2] [%] | Water content, % By KF [3] [%] | Water solubility [4]
1 | rasagiline tannate [Example 4] | 1 | 5.2 | 4.5 | –
2 | rasagiline tannate [Example 3] | 1 | 3.4 | 3.4 | –
3 | rasagiline tannate | – | – | – | low water solubility
